This test addresses cAMP and cAMP-inhibited cGMP 3',5'-cyclic phosphodiesterase 10A (Homo sapiens, UniProt Q9Y233). The test is described as follows: Inhibition of PDE10A.

Protein sequences, listed by entry. Tags and fused reporters are not part of them. Lines headed by an entry give the natural chain unless they say otherwise; changes in a name come on top.
UniProt Q9Y233: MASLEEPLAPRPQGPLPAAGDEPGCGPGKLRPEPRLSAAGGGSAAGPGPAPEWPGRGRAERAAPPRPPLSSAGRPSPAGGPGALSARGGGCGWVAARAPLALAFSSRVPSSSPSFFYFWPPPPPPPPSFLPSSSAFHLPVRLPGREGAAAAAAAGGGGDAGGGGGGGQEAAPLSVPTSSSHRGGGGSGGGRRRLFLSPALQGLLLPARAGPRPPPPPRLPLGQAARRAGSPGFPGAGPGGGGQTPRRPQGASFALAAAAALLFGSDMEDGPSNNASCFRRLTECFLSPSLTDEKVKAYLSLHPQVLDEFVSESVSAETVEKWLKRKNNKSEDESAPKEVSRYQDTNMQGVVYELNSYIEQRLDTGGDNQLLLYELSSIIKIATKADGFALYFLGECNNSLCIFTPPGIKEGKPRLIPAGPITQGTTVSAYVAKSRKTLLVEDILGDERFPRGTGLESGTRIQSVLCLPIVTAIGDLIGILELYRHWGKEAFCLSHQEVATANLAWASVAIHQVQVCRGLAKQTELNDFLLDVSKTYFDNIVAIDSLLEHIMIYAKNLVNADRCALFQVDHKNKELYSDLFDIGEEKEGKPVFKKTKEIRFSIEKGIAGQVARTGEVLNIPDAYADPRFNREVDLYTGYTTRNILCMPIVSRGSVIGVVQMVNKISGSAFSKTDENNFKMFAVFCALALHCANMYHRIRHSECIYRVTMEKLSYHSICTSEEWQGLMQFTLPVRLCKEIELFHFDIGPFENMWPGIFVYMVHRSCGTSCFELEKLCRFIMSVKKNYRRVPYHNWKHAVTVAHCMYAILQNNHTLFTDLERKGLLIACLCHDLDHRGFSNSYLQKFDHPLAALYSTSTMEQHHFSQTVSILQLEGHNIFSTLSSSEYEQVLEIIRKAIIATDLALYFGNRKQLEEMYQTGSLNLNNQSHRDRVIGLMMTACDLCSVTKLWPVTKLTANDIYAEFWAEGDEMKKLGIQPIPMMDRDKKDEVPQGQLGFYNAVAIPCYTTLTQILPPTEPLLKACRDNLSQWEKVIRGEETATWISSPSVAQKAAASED

What is called IC50 is the point on the concentration scale where inhibition reaches its midpoint. For `CC(=O)N1CCCC(c2cccnc2Oc2ccc(C(=O)c3nc4ccccc4[nH]3)cc2)C1` (configuration not stated), the midpoint of inhibition, the IC50, lay at 0.05 nM.
The compound `c1cnc(Oc2ccc(Nc3nc4ccccc4s3)cc2)c(N2CCOCC2)c1` came in with an IC50 of 0.96 nM.

The values above are taken from ChEMBL document CHEMBL2177053, “Current landscape of phosphodiesterase 10A (PDE10A) inhibition” (J Med Chem, 2012).
